Test results reported in PubChem BioAssay AID652257 (The Scripps Research Institute Molecular Screening Center, 2013).
The entries are a selection whose mix differs from that of the whole data set. Calls of active or inactive are those of the source.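 Rule for the calls: active = inhibition above about 21% made by adding two undisclosed values (limit read from the data); inactive = the rest.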

Amino acid sequences for entries named in this document (tags omitted).
UniProt Q99873, whole entry: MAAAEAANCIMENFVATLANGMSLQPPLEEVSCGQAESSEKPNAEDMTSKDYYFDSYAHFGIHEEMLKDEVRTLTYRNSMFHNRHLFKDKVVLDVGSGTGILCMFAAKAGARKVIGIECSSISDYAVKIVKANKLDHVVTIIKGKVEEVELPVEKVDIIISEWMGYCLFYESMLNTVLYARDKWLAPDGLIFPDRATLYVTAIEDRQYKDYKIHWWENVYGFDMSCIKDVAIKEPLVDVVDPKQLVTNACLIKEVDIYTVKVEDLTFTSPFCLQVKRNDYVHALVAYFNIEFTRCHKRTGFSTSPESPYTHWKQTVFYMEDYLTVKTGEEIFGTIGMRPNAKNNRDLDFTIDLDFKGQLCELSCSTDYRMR

Target: Protein arginine N-methyltransferase 1 (Homo sapiens) (UniProt Q99873)
Experiment: PRMT1 methyltransferase inhibitors, primary screen, biochemical, fluorescence polarization (AID 652257)
Conditions: recombinant PRMT1, activity-based probe fluorescence polarization; at 2.79 µM; hits give high values

Q: `CCC(=O)N(c1ccccc1)C1(COC)CCN(CCn2nnn(CC)c2=O)CC1` was tested. Which inhibition did it give?
A: inactive: 2.95%

Q: For `CCC(=O)N(c1ccccc1)C1(COC)CCN(CCc2cccs2)CC1`, which inhibition is on record?
A: inactive: -1.37%
